Laboratory results reported in patent US7041681B2, “Compounds as opioid receptor modulators” (Janssen Pharmaceutica N.V., priority 2002, dated 2006).
Where two headings read alike, the source gives them in different places.

By UniProt entry, the sequences of proteins in these tests, tags left out.
UniProt P33535, whole entry: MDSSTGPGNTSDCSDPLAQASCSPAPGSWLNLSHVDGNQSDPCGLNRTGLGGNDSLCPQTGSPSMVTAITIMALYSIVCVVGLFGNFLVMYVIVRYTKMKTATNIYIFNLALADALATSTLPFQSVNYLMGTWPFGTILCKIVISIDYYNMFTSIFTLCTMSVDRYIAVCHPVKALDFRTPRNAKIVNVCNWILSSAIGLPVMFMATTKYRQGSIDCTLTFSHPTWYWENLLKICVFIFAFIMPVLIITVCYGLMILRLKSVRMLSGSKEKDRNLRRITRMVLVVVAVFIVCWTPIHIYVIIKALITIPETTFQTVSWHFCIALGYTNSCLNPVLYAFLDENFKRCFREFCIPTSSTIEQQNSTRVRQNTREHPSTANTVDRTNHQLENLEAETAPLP
UniProt P33533, whole entry: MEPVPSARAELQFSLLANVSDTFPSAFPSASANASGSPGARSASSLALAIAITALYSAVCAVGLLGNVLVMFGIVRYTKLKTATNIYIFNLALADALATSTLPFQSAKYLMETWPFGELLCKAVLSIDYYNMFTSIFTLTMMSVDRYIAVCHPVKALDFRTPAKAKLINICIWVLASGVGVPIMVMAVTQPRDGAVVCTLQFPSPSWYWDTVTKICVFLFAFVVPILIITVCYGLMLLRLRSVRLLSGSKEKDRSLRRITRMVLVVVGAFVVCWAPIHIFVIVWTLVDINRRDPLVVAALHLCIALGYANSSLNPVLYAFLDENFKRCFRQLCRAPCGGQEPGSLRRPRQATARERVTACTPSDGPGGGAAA

What was measured:
mu opioid receptor = mu opioid receptor (Rattus norvegicus, UniProt P33535); assay: Rat Brain mu Opioid Receptor Binding Assay; settings: read-out: μ-opioid binding (Ki), rat forebrain membranes, ~0.8 nM [3H]DAMGO, 25° C., 2.5 h
Procedure: (§1) Male, Wistar rats (150–250 g, VAF, Charles River, Kingston, N.Y.) are killed by cervical dislocation, and their brains removed and placed immediately in ice cold Tris HCl buffer (50 mM, pH 7.4). The forebrains are separated from the remainder of the brain by a coronal transection, beginning dorsally at the colliculi and passing ventrally through the midbrain-pontine junction. After dissection, the forebrains are homogenized in Tris buffer in a Teflon®-glass homogenizer. The homogenize is diluted to a concentration of 1 g of forebrain tissue per 80 mL Tris and centrifuged at 39,000×g for 10 min. The pellet is resuspended in the same volume of Tris buffer containing 5 mM MgCl2 with several brief pulses from a Polytron homogenizer. This particulate preparation is used for the mu-opioid binding assays. Following incubation with the mu selective peptide ligand ˜0.8 nM [^3H]DAMGO at 25° C. for 2.5 h in a 96-well plate with total 1 ml, the plate contents are filtered through Wallac filtermat B sheets on a Tomtec 96-well harvester. The filters are rinsed three times with 2 mL of 10 mM HEPES (pH7.4), and dried in a microwave oven 1:45 min twice. To each sample area 2×40 μl of Betaplate Scint scintillation fluid (LKB) is added and analyzed on a LKB (Wallac) 1205 BetaPlate liquid scintillation counter.
(§2) The data are used to calculate either the % inhibition compared to control binding (when only a single concentration of test compound is evaluated) or a Ki value (when a range of concentrations is tested). % inhibition is calculated as: [(total dpm-test compound dpm dpm)/(total dpm-nonspecific dpm)]*100. Kd and Ki values were calculated using GraphPad PRISM data analysis program.

delta opioid receptor = delta opioid receptor (Rattus norvegicus, UniProt P33533); assay: Rat Brain Delta Opioid Receptor Binding Assay; settings: read-out: δ-opioid binding (Ki), rat forebrain membranes, ~4 nM [3H]DPDPE, 25° C., 2.5 h
Procedure: as §1, with “delta opioid” for “mu-opioid”, “delta” for “mu”, “˜4” for “˜0.8”, “[^3H]DPDPE” for “[^3H]DAMGO”, “total volume of” for “total”
as §2

Structure (SMILES) | Ki (mu opioid receptor) | Ki (delta opioid receptor) | Ki (mu opioid receptor; tested form: TFA) | Ki (delta opioid receptor; tested form: TFA)
Cc1cc(OC(=O)C(C)(C)C)cc(C)c1C[C@H](N)C(=O)N1CCCC[C@H]1c1nc(-c2ccccc2)c[nH]1 | 0.17 nM | 11.9 nM |  | 
CC(=O)Oc1cc(C)c(C[C@H](N)C(=O)N2CCCCC2c2ncc(-c3ccccc3)[nH]2)c(C)c1 (stereo partly drawn) |  |  | 0.16 nM | 6.7 nM
Cc1[nH]c([C@@H]2Cc3ccccc3CN2C(=O)[C@H](Cc2ccc(O)cc2)N(C)C)nc1-c1ccccc1 | 5320 nM | 60.9 nM |  | 
CCNC(=O)c1ccc(C[C@H](N)C(=O)N2Cc3ccccc3C[C@H]2c2nc(-c3ccccc3)c[nH]2)cc1 | 6.5 nM | 1.7 nM |  | 
Cc1[nH]c([C@@H]2Cc3ccccc3CN2C(=O)[C@@H](N)Cc2ccncc2)nc1-c1ccccc1 | 11400 nM | 208 nM |  | 
NC(=O)C(Cc1ccccc1)NC(=O)c1[nH]c([C@@H]2Cc3ccccc3CN2C(=O)[C@@H](N)Cc2ccc(O)cc2)nc1-c1ccccc1 (stereo partly drawn) | 922 nM | 6 nM |  | 
